The record followed here is US10676467B2 (Washington University, priority 2017, dated 2020).

Protein sequences, listed by entry. Tags and fused reporters are not part of them.
UniProt P21453, whole entry: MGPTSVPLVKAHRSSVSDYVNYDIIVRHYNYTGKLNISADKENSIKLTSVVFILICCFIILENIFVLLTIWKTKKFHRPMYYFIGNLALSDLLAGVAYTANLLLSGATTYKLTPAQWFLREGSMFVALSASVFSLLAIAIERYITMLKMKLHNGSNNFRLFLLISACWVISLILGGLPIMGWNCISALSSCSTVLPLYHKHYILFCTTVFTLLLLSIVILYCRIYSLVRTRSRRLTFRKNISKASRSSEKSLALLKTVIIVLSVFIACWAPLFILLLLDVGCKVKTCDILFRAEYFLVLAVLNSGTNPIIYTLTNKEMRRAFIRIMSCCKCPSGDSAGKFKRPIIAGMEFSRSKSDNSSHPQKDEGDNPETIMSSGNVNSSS

The target in this assay is recombinant human S1P1 (Homo sapiens (Human), UniProt P21453). Put plainly: [32P]S1P competitive binding assay on cell membranes. The conditions noted are these: vs compound 4 (2.6 nM).

As for `O=C(O)CNCc1ccc(-c2noc(-c3ccc(OCCF)c(C(F)(F)F)c3)n2)cc1`, the “Fold increased S1P1 IC50 compared to compound 4” value turned out to be 38 fold.
